Consider 1 molecule from patent publication US20110263693A1, “CELASTROL, GEDUNIN, AND DERIVATIVES THEREOF AS HSP90 INHIBITORS” (DANA-FARBER CANCER INSTITUTE, INC., priority 2006, published 2011).

One experiment relates to celastrol signature. In words: Connectivity Map query with the celastrol signature.
A further experiment deals with gedunin signature. In words: Connectivity Map query with the gedunin signature.

As to `CCCN1CCC[C@@H]2Cc3n[nH]cc3C[C@H]21` [quinpirole], in the experiment with celastrol signature, the “celastrol score (connectivity score)” value is 0. Moreover, in the experiment with gedunin signature, the “gedunin score (connectivity score)” value came to 0.
